Laboratory results from US5830452A, “Method for enhancing the anti-tumor therapeutic index of interleukin-2” (Chiron Corporation, priority 1994, dated 1998).

Key:
[1] = Maximum tolerated dose in the patient; assay type: in vivo; settings: s.c.
Text: As stated above, the blood level must go above a specific threshold. This threshold is the baseline necessary for efficacy and can be as high as is tolerated by the patient. For example, the physician's observations may set the maximum tolerated dose (MID) based on observable signs of toxicity, such as nausea, hypotension, weight gain, fever, etc. Since the disease being treated is typically fatal, it is important to administer as much IL-2 as can be tolerated so that maximum efficacy is possible. This threshold may vary from patient to patient, however, the MTD for a single dose of unmodified IL-2, irrespective of any other dose is typically from 5 to 10 million I.U./kg. The maximum tolerated dose for an i.v. polyethylene glycol modified IL-2 of approximately 160 kD apparent molecular weight is between 16 and 18 million I.U./kg. When polyethylene glycol modified IL-2 is administered s.c. a local reaction (redness and inflammation) is observed at approximately 3.6 million I.U./kg. The MID for Q 8 hours, for 1-5 days (14 total doses in which each dose is delivered by a 15 minute infusion) is approximately 720,000 and 800,000 I.U./kg. […] This time is preferably between 12 hours and 80 hours, more preferably between 24 and 60 hours.

[2] = system: B16 melanoma; assay: Schedule dependence in B16, Tables 6(A) and 6(B); assay type: in vivo, mice
Method: (§1) Unmodified IL-2 and PEG (7,000 MW) modified IL-2 (having an apparent molecular weight of 160 kD) were administered to mice who were transplanted with one of three tumor types; Meth A; B 16 melanoma; and Pan-02. The details are more specifically set out in Zimmerman et al., 1989, Cancer Research, 49:6521-6528 which is hereby incorporated by reference in its entirety.
As in the Meth A studies, the maximum i.v. dose achievable was 112.5 mg/kg total IL-2 on the QD×9 schedule; however in this case, 6/16 animals died at this dose level. The BDF1 mice used for B16 were more sensitive to IL-2 than the Balb/c Meth A hosts at all but the lowest dose; 1/16, 5/16, and 6/16 died at 45, 90, 112.5 mg/kg, respectively.
The anti-tumor efficacy of PEG-IL-2 was studied at 3 dose levels, 18, 12, or 6 mg/kg total dose. These levels were lower than those studied in Meth A because of the increased sensitivity of the BDF1 hosts to its lethal effects, as noted above. […] Further studies are ongoing in this model to more fully establish the doses and length of treatment which produce the maximum therapeutic benefit.
^a IL2 was administered QD × 9, i.v., beginning 1 day after s.c
tumor implant. Five animals/group in 2 experiments, 6 animals/group in th
^b T C is the tumor growth delay, determined as the mean number of
days for the treated tumor volume to reach 500 mm^3 minus the mean
number of days for the control tumor volumes to reach 500 mm^3. Mean
value given for 3 experiments.
^c Treatmentcaused deaths.
^e PEGIL2 was given iv starting one day after sc tumor implant.
tumor growth through the last day of observation, day 64. These mice were
excluded from the calculation of T C.
^g Not determined due to excessive toxicity of treatment.

[3] = Pharmacokinetic parameters of computer-driven IL-2 infusion versus PEG-IL-2 bolus, Table 8; assay type: in vivo, Fisher rats
[4] = system: Pan-02; assay: Schedule dependence in Pan-02, Tables 7(A) and 7(B); assay type: in vivo, mice
Method: as §1
Although the toxicity of PEG-IL-2 was reduced at these dose levels compared to those used in the B16 model, there was a schedule-dependent increase in toxicity as the interval between doses was decreased. No deaths were recorded on the Q7D×2 schedule, 1/30 mice died on Q4D×3, 5/30 died on Q3D×4, and 10/15 died on the 3 doses of the Q2D×5 schedule (Table 7(B)). An additional single study has shown that PEG-IL-2 at 24 mg/kg on the Q7D×2 schedule also was not lethal.
^a IL2 treatment started 7 days following s.c. tumor implant, i.v., Q
× 9. Five mice/group/experiment.
^b T C calculated as in Table 2.
^c % ILS is the percent increase in lifespan: calculated as the media
day of death of the treated group/median day of death of the controls,
^d Treatmentcaused deaths.
^f PEGIL-2 treatment started 7 days postimplant, i.v., on the
from calculations of survival. Days posttumor inoculation.

[5] = i.v.; cited from earlier work
[6] = system: strongly immunogenic murine model; settings: 100 IU s.c. around the tumor; cited from earlier work
[7] = system: MCA-105 sarcoma; settings: thrice daily injections up to 18,000 I.U.s/day; cited from earlier work
[8] = system: tumor; settings: several hundred to several thousand IU, i.p., i.v. or s.c.; cited from earlier work
[9] = 30 mg/kg, Q7D×2, single experiment
[10] = PEG-IL-2 1.6 mg/kg bolus, IL-2 38.4 mg/kg infused over 48 hours, n = 4

## 160 kD PEG IL-2: PEG (7,000 MW) modified IL-2 having an apparent molecular weight of 160 kD
[1]
  dose at which a local reaction (redness and inflammation) is observed: approximately 3.6 million I.U./kg
[2]; 6 mg/kg total, i.v. Q3D×4
  Number deaths/total treated: 6/10
  T - C (tumor growth delay): 7.2 days
[2]; 6 mg/kg total, i.v. Q4D×3
  Number deaths/total treated: 0/10
  T - C (tumor growth delay): 7.2 days
[2]; 6 mg/kg total, i.v. Q7D×2
  Number deaths/total treated: 0/16
  T - C (tumor growth delay): 8.1 days
[2]; 12 mg/kg total, i.v. Q3D×4
  Number deaths/total treated: 10/10
[2]; 12 mg/kg total, i.v. Q4D×3
  Number deaths/total treated: 1/10
  T - C (tumor growth delay): 10.1 days
[2]; 12 mg/kg total, i.v. Q7D×2
  Number deaths/total treated: 0/16
  T - C (tumor growth delay): 10.0 days
[2]; 18 mg/kg Q7D×2 vs IL-2 9 mg/kg QD×9
  increase in T-C compared to unmodified IL-2, highest non-lethal doses: over 9 -fold
[2]; 18 mg/kg total, i.v. Q3D×4
  Number deaths/total treated: 10/10
[2]; 18 mg/kg total, i.v. Q4D×3
  Number deaths/total treated: 9/10
[2]; 18 mg/kg total, i.v. Q7D×2
  Number deaths/total treated: 0/16
  T - C (tumor growth delay): 13.6 days
[2]; 18 mg/kg, Q7D×2
  complete block of tumor growth (all treated animals): 3/16
[2]; 18 mg/kg, Q7D×2, day 28 post-implant
  mean tumor growth inhibition compared to controls: ≥ 95%
[2]; 18 mg/kg, Q7D×2, through day 64
  complete block of tumor growth (third experiment): 3/6 and Three of six
[2]; [9]
  efficacy versus 18 mg/kg: no greater efficacy than with 18 mg/kg
  lethality: no lethality
[2]; PEG-IL-2 at non-lethal doses
  increase in tumor growth delay (T-C) compared to unmodified IL-2 at lethal doses: 2 -fold
[2]; Q4D×3 or Q3D×4 schedule, 18, 12, or 6 mg/kg
  lethality: clear dose-dependent lethality
[2]; Q7D×2 schedule, 18, 12, or 6 mg/kg
  lethality: did not produce lethality
[3]; [10]
  α Half life: 0.778 ± 0.128 h
  β Half life: 6.16 h
[3]; PEG-IL-2 1.6 mg/kg bolus, IL-2 38.4 mg/kg infused over 48 hours, n = 4, trapezoidal, to time infinity
  AUC: 6.59 ± 0.45 10^5 U/ml-hr
[3]; initial blood levels, half lives, areas under the curves
  PK parameters, PEG-IL-2 versus IL-2: not significantly different
[4]; 2.5 mg/kg total, i.v. Q2D×5
  % ILS: 100%
  Day of death, Median: 15.0 Days post-tumor inoculation
  Day of death, Range: 19-35 Days post-tumor inoculation
  T - C: 3.5 days
[4]; 3 mg/kg total, i.v. Q3D×4
  % ILS: 110%
  Day of death, Median: 23.5 Days post-tumor inoculation
  Day of death, Range: 20-40 Days post-tumor inoculation
  T - C: 1.6 days
[4]; 3 mg/kg total, i.v. Q4D×3
  % ILS: 183%
  Day of death, Median: 34.5 Days post-tumor inoculation
  Day of death, Range: 24-42 Days post-tumor inoculation
  T - C: 2.1 days
[4]; 3 mg/kg total, i.v. Q7D×2
  % ILS: 170%
  Day of death, Median: 32.5 Days post-tumor inoculation
  Day of death, Range: 24-38 Days post-tumor inoculation
  T - C: 3.2 days
[4]; 6 mg/kg total, i.v. Q3D×4
  % ILS: 170%
  Day of death, Median: 32.5 Days post-tumor inoculation
  Day of death, Range: 20-49 Days post-tumor inoculation
  T - C: 2.9 days
[4]; 6 mg/kg total, i.v. Q4D×3
  % ILS: 170%
  Day of death, Median: 32.5 Days post-tumor inoculation
  Day of death, Range: 23-46 Days post-tumor inoculation
  T - C: 1.9 days
[4]; 6 mg/kg total, i.v. Q7D×2
  % ILS: 163%
  Day of death, Median: 31.5 Days post-tumor inoculation
  Day of death, Range: 20-49 Days post-tumor inoculation
  T - C: 5.7 days
[4]; 12 mg/kg total, i.v. Q3D×4
  % ILS: 207%
  Day of death, Median: 38.0 Days post-tumor inoculation
  Day of death, Range: 29-49 Days post-tumor inoculation
  T - C: 4.8 days
[4]; 12 mg/kg total, i.v. Q4D×3
  % ILS: 197%
  Day of death, Median: 36.5 Days post-tumor inoculation
  Day of death, Range: 21-45 Days post-tumor inoculation
  T - C: 4.3 days
[4]; 12 mg/kg total, i.v. Q7D×2
  % ILS: 153%
  Day of death, Median: 30.0 Days post-tumor inoculation
  T - C: 4.5 days
[4]; 24 mg/kg, Q7D×2, additional single study
  lethality: not lethal
[4]; Q2D×5
  deaths, all doses pooled: 10/15
  toxicity and therapeutic value: quite toxic, and of limited therapeutic value
[4]; Q3D×4
  deaths, all doses pooled: 5/30
[4]; Q4D×3
  deaths, all doses pooled: 1/30
[4]; Q7D×2
  T-C, range: 3.2 to 5.7 days
  deaths, all doses pooled: No deaths
[4]; Q7D×2, s.c. site, p<0.05
  mean decrease in rate of growth to 500 mm^3 (T-C): ~5 days

## IL-2: Unmodified interleukin-2, recombinant or natural human; lymphokine, T cell growth factor
[5]
  share of the dose disappearing from the circulation in the first phase: approximately 75%
[6]
  tumor growth inhibition: significant tumor growth inhibition
[2]; 9 mg/kg total, i.v. QD×9
  Number deaths/total treated: 0/16
  T - C (tumor growth delay): 1.5 days
[2]; 45 mg/kg total, i.v. QD×9
  Number deaths/total treated: 1/16
  T - C (tumor growth delay): 2.6 days
[2]; 90 mg/kg total, i.v. QD×9
  Number deaths/total treated: 5/16
  T - C (tumor growth delay): 2.9 days
[2]; 112.5 mg/kg total, i.v. QD×9
  Number deaths/total treated: 6/16
  T - C (tumor growth delay): 3.5 days
[2]; i.v. QD×9, even at toxic levels
  complete regressions in B16: no complete regressions
[4]; 18 mg/kg total, i.v. QD×9
  % ILS: 127%
  Number deaths/total treated: 0/5
  T - C: 0.8 days
[4]; 45 mg/kg total, i.v. QD×9
  % ILS: 143%
  Number deaths/total treated: 0/10
  T - C: 0.5 days
[4]; 112.5 mg/kg total, i.v. QD×9
  % ILS: < 100%
  Number deaths/total treated: 2/5
  T - C: 0.4 days
[4]; even at toxic levels
  anti-tumor efficacy as a single agent: limited anti-tumor efficacy
[7]
  effect on established metastases: induced regression of metastases
[8]
  efficacy at low doses: little efficacy
